{"source": "patent US10167453B2", "about": "“Saccharide oxidase, and production method for same and use of same” (AMANO ENZYME INC., priority 2012, dated 2019)", "assay": "Thermal inactivation after desugaring of egg white", "format": "physicochemical", "details": "54 and 56° C., 1, 3, 5 and 8 minutes", "description": "100 μL of the desugared egg white was subjected to a heat treatment at a temperature of 54, 56, and 58° C. for 1, 3, 5, and 8 minutes, respectively, and then cooled on ice, and the residual activity of each enzyme was measured."}
{"substance": "Glucose oxidase", "values": [{"measurement": "residual enzyme activity in desugared egg white after heat treatment", "result": "no substantial reduction in the activity"}]}
